The values below come from ChEMBL document CHEMBL3112476, “Inhibition of IκB kinase-β and IκB kinase-α by heterocyclic adamantyl arotinoids” (Bioorg Med Chem, 2014).

By UniProt entry, the sequences of proteins in these tests, tags left out.
UniProt P10276, whole entry: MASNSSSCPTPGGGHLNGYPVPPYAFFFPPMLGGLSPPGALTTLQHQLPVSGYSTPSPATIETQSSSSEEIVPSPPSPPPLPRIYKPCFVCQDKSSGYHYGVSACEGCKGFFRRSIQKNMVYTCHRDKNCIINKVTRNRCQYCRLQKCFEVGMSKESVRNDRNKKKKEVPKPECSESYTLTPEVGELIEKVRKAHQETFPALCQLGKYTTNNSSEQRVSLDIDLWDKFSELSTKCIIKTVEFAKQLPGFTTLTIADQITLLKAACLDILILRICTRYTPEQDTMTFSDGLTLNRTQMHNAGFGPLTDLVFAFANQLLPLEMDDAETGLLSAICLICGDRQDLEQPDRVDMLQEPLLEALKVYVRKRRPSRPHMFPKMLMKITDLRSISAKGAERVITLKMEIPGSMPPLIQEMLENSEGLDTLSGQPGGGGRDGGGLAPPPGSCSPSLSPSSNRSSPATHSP

Each structure is given as a SMILES string.

For this test, the target named is Retinoic acid receptor alpha (Homo sapiens, UniProt P10276). Put plainly: Agonist activity at Gal4-fused RARalpha (unknown origin) transfected in HEK293 cells assessed as induction of transcriptional activity at 4 uM after 6 hrs by luciferase/beta-galactosidase reporter gene assay relative to control. Format: cell-based. The method in brief:
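Gal4-RARα or Gal4-RXRα (10 ng) plus 2 ng β-galactosidase vector, calcium phosphate transfection into HEK-293 cells carrying a 5×UAS luciferase reporter. After 16 h, cells were washed and given 5% charcoal-treated FBS medium, then rested 2 h. Stimulation was with 4 µM compound or 0.1% DMSO; controls were 1 µM atRA (RARα) or 1 µM CD3254 (RXRα). Harvest was at 6 h (RARα) or 24 h (RXRα). Luciferase/β-gal ratio was expressed as fold over unstimulated cells. Data: 2 experiments, triplicate.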
(In general: Reporter assays use an easily measured gene product as a stand-in for the process of interest.)
As to `CC(=O)NCCCOc1cc(/C=C/C(=O)O)ccc1-c1cc(C23CC4CC(CC(C4)C2)C3)c(O)cc1C`, the fold change (FC) is 1.
The figure for `COCCOCOc1cc(C)c(-c2ccc3cc(C(=O)O)ccc3c2Cl)cc1C12CC3CC(CC(C3)C1)C2` is 1.1.
The figure for `Cc1cc(O)c(C23CC4CC(CC(C4)C2)C3)cc1-c1ccc(/C=C/C(=O)O)cc1Cl` is 1.1; for `COc1nc(/C=C/C(=O)O)cnc1-c1ccc(O)c(C23CC4CC(CC(C4)C2)C3)c1` it is 1.1.
For the molecule `COc1nc(/C=C/C(=O)O)cnc1-c1cc(C23CC4CC(CC(C4)C2)C3)c(O)cc1C`, the fold change (FC) is 1.
With `Cc1cc(O)c(C23CC4CC(CC(C4)C2)C3)cc1-c1ncc(-c2ccc(C(=O)O)cc2)s1`, the fold change (FC) came out at 1.4.
On to `Cc1cc(O)c(C23CC4CC(CC(C4)C2)C3)cc1-c1ccc2cc(C(=O)O)ccc2c1Cl`, for which the fold change (FC) amounted to 1.1.
Take `COCCOCOc1cc(C)c(-c2ncc(-c3ccc(C(=O)O)cc3)s2)cc1C12CC3CC(CC(C3)C1)C2`: the fold change (FC) came to 0.9.
The figure for `O=C(O)c1ccc(-c2cnc(-c3ccc(O)c(C45CC6CC(CC(C6)C4)C5)c3)s2)cc1` is 4.6; for `Cc1cc(O)c(C23CC4CC(CC(C4)C2)C3)cc1-c1ccc(CC(=O)O)cc1Cl` it is 1.4.
